{
  "source": "paper PMC9186491",
  "about": "“Novel Small Molecule Tyrosine Kinase 2 Pseudokinase Ligands Block Cytokine-Induced TYK2-Mediated Signaling Pathways” (Frontiers in Immunology, 2022)",
  "key": {"[1]": {"test_system": "JAK1-dependent IL6-induced phosphorylation of STAT3 (Tyr705) in TF1 cells", "assay": "JAK cellular selectivity assay, IL6-pSTAT3 (JAK1)", "type": "cell-based", "details": "Homo sapiens, TF-1, read-out: JAK Cellular Selectivity (IC50) IL6-pSTAT3 (JAK1)", "experimental": "(§1) The cells were then ready for the assay after incubating for 2 hours in a humidified, 5% CO2 cell culture incubator at 37°C. […] The curve fit was generated, and statistical analysis was performed using GraphPad Prism. IC50 values were derived by non-linear regression analysis and defined as the compound concentration at which the response level was reduced to half of its maximum relative to a DMSO control."}, "[2]": {"test_system": "JAK1/3-dependent IL2-induced phosphorylation of STAT5 (Tyr694/699) in Kit225 cells", "assay": "JAK cellular selectivity assay, IL2-pSTAT5 (JAK1/3)", "type": "cell-based", "details": "Homo sapiens, KIT225, read-out: JAK Cellular Selectivity (IC50) IL2-pSTAT5 (JAK1/3)", "experimental": "as §1"}},
  "data": [
    {"smiles": "Cn1cc(Nc2nccc(N3C[C@H]4CC[C@@H](C3)N4C(=O)[C@@H]3CC3(F)F)n2)cn1", "note": "[Brepocitinib, reference compound]", "values": [
      {"measurement": "IC50", "setting": "[1]", "result": "54 ± 55", "unit": "nM"},
      {"measurement": "IC50", "setting": "[2]", "result": "62 ± 41", "unit": "nM"}
    ]}
  ]
}
